Laboratory results from patent US20250235566A1, “[…]-[…] LABELING PRECURSORS AND RA[…] THEREFROM” (Medianezia GmbH, priority 2021, published 2025).

Experiment: Determination of log D (1-octanol/PBS) of the labeled compounds
Format: physicochemical
Procedure: To this was added each time 700 μL of 1-octanol, and the mixture was shaken vigorously for 2 min and then centrifuged for 1 min. The organic and aqueous phases were separated and 400 μL of each was isolated. Samples of 3 μL (PBS) and 6 μL (1-octanol) were dabbed onto a TLC plate. Most of the activity was in the aqueous phase. This was subsequently diluted to 700 μL and extracted twice more with 1-octanol and dabbed on again. The TLC was exposed for about 5 min, and the integral of each spot (octanol phase: lo, aqueous PBS phase: lw) was determined. The calculation of the log D value by equation (1) took account of the different volumes Vo=6 μL and Vw=3 μL:
For the evaluation, the values from the 2nd and 3rd extractions of the 4 batches were averaged.

| Compound | log D value (^68Ga-labeled compound) | log D value (^177Lu-labeled compound) |
| --- | --- | --- |
| CN(CC(=O)O)C1(CCCCC(=O)N[C@@H](CCC(=O)NCCCCOc2ccc3nccc(C(=O)NCC(=O)N4CC(F)(F)C[C@H]4C#N)c3c2)C(=O)NCCCCOc2ccc3nccc(C(=O)NCC(=O)N4CC(F)(F)C[C@H]4C#N)c3c2)CN(CC(=O)O)CCN(CC(=O)O)C1 [DATA^5m.Glu.(FAPi)2, 2,2′-(6-(5-(((S)-1,5-bis((4-((4-((2-((S)-2-cyano-4,4-difluoropyrrolidin-1-yl)-2-oxoethyl)carbamoyl)quinolin-6-yl)oxy)butyl)amino)-1,5-dioxopentan-2-yl)amino)-5-oxopentyl)-6-((carboxymethyl)(methyl)amino)-1,4-diazepane-1,4-diyl)diacetic acid] | −2.03 ± 0.05 | – |
| N#C[C@@H]1CC(F)(F)CN1C(=O)CNC(=O)c1ccnc2ccc(OCCCCNC(=O)CC[C@H](NC(=O)CN3CCN(CC(=O)O)CCN(CC(=O)O)CCN(CC(=O)O)CC3)C(=O)NCCCCOc3ccc4nccc(C(=O)NCC(=O)N5CC(F)(F)C[C@H]5C#N)c4c3)cc12 [DOTA.Glu.(FAPi)2, 2,2′,2″-(10-(2-(((S)-1,5-bis((4-((4-((2-((S)-2-cyano-4,4-difluoropyrrolidin-1-yl)-2-oxoethyl)carbamoyl)quinolin-6-yl)oxy)butyl)amino)-1,5-dioxopentan-2-yl)amino)-2-oxoethyl)-1,4,7,10-tetraazacyclododecan-1,4,7-triyl)triacetic acid] | −2.08 ± 0.07 | −1.77 ± 0.10 |
| N#C[C@@H]1CC(F)(F)CN1C(=O)CNC(=O)c1ccnc2ccc(OCCCCNC(=O)CC[C@H](NC(=O)CCC(C(=O)O)N3CCN(CC(=O)O)CCN(CC(=O)O)CCN(CC(=O)O)CC3)C(=O)NCCCCOc3ccc4nccc(C(=O)NCC(=O)N5CC(F)(F)C[C@H]5C#N)c4c3)cc12 (stereo partly drawn) [DOTAGA.Glu.(FAPi)2, 2,2′,2″-(10-(4-(((S)-1,5-bis((4-((4-((2-((S)-2-cyano-4,4-difluoropyrrolidin-1-yl)-2-oxoethyl)carbamoyl)quinolin-6-yl)oxy)butyl)amino)-1,5-dioxopentan-2-yl)amino)-1-carboxy-4-oxobutyl)-1,4,7,10-tetraazacyclododecan-1,4,7-triyl)triacetic acid] | −2.48 ± 0.05 | −2.77 ± 0.10 |
